Reference: paper PMC10461232, “Structure-Based Design of Transport-Specific Multitargeted One-Carbon Metabolism Inhibitors in Cytosol and Mitochondria” (Journal of Medicinal Chemistry, 2023)

Biological target: T1, SHMT2 (Homo sapiens, UniProt P34897)
T1 construct: made in house; host or cells: E. coli Rosetta (DE3)pLysS
T1 sequence (P34897 30-504): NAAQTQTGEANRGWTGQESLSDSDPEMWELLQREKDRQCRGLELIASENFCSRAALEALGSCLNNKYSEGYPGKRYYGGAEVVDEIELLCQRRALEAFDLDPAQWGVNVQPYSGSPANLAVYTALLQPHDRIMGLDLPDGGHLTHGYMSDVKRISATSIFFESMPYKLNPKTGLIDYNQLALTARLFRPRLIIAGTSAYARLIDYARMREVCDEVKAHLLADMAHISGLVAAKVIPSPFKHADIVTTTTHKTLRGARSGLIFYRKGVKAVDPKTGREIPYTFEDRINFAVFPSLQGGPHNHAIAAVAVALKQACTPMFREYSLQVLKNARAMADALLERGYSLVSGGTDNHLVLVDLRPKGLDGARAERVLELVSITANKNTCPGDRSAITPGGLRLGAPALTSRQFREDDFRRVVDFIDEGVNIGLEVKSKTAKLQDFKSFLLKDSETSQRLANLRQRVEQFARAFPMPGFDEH
Assay: SHMT2 inhibition assay coupled with MTHFD2, Ki
Type: biochemical

Nc1nc2ccn(CCCCCc3ccc(C(=O)N[C@@H](CCC(=O)O)C(=O)O)c(F)c3)c2c(=O)[nH]1 [Compound 11, (4-(5-(2-Amino-4-oxo-3,4-dihydro-5H-pyrrolo[3,2-d]pyrimidin-5-yl)pentyl)-2-fluorobenzoyl)-L-glutamic Acid]
fold increased SHMT2 inhibition potency over phenyl bridge 9 (2-fluoro-phenyl bridge versus phenyl bridge (9)): 2 fold | fold increased SHMT2 inhibition potency over 1 (ratio of Ki values relative to compound 1): 28 fold
